Assay results taken from patent US12274706B2, “Pharmaceutical composition for oral administration containing sulfasalazine and/or a sulfasalazine organic salt, production process and use” (MEDAC GESELLSCHAFT FUER KLINISCHE SPEZIALPRAEPARATE MBH, priority 2017, dated 2025).
Marks after values point to notes of the source that are not given here.

Test: Solubility of sulfasalazine, Form A meglumine salt and pharmaceutical compositions (HPLC)
Type: physicochemical
Details: for pH FaSSIF-V2: pH of the solubility sample in FaSSIF-V2
[1] = pH of the solubility sample in water

| SMILES | pH Water (diluted in phosphate Buffer pH 6.8) | pH FaSSIF-V2 | pH Water [1] |
| --- | --- | --- | --- |
| CNCC(O)C(O)C(O)C(O)CO.O=C(O)c1cc(N=Nc2ccc(S(=O)(=O)Nc3ccccn3)cc2)ccc1O [Form A meglumine salt, D(−)-N-methylglucamine 2-hydroxy-5-[2-[4-[(2-pyridinylamino)sulfonyl]phenyl]diazenyl]-benzoate, crystal Form A] | 6.0* | 6.4 | 7.5 |
| O=C(O)c1cc(N=Nc2ccc(S(=O)(=O)Nc3ccccn3)cc2)ccc1O [sulfasalazine, 2-hydroxy-5-[2-[4-[(2-pyridinylamino)sulfonyl]phenyl]diazenyl]-benzoic acid] |  | 6.3 | 5.9 |
